This is an account of results in patent publication EP4831173A1, “TYK2 INHIBITOR AND USE THEROF” (dated 2026).

Chains of the proteins cited; added tags and fusions are not shown. Residues count along the entry.
UniProt P29597, 589-875 limits assumed: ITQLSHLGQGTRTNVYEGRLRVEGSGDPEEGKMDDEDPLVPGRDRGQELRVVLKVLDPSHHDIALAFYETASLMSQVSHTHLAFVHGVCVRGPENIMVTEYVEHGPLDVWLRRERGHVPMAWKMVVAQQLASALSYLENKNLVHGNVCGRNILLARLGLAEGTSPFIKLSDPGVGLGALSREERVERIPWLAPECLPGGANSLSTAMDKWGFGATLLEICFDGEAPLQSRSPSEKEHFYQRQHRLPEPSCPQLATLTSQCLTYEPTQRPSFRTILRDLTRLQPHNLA
UniProt P29597, whole entry: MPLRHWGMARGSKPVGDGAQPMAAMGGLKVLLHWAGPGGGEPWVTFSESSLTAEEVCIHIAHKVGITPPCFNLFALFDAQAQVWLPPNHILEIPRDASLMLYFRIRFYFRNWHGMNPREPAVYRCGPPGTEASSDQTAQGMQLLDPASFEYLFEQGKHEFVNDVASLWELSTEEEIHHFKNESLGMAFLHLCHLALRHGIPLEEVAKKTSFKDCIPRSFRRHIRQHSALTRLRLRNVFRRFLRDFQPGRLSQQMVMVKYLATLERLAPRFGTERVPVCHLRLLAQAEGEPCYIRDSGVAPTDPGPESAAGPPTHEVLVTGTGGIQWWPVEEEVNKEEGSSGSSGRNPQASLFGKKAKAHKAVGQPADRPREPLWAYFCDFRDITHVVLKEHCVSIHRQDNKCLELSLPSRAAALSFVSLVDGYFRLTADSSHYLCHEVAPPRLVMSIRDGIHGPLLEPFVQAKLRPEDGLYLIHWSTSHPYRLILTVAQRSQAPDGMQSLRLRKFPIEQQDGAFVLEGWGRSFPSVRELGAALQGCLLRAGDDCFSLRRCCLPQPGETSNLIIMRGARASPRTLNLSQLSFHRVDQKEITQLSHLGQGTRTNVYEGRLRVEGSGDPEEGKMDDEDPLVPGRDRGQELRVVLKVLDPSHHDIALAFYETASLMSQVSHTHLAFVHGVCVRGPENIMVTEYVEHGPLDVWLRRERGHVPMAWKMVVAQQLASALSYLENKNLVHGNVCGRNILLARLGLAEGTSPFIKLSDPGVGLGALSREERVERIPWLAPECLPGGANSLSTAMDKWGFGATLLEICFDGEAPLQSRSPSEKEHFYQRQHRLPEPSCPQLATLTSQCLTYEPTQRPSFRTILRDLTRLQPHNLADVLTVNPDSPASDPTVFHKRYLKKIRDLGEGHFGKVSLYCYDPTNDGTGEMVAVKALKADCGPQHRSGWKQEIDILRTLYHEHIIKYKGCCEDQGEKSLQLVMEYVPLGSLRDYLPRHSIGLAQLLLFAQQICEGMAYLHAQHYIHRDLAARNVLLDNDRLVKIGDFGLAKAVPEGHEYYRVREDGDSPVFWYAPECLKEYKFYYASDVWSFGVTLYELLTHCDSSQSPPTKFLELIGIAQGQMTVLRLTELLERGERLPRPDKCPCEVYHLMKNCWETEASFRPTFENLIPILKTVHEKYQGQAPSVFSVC
UniProt P23458, whole entry partner: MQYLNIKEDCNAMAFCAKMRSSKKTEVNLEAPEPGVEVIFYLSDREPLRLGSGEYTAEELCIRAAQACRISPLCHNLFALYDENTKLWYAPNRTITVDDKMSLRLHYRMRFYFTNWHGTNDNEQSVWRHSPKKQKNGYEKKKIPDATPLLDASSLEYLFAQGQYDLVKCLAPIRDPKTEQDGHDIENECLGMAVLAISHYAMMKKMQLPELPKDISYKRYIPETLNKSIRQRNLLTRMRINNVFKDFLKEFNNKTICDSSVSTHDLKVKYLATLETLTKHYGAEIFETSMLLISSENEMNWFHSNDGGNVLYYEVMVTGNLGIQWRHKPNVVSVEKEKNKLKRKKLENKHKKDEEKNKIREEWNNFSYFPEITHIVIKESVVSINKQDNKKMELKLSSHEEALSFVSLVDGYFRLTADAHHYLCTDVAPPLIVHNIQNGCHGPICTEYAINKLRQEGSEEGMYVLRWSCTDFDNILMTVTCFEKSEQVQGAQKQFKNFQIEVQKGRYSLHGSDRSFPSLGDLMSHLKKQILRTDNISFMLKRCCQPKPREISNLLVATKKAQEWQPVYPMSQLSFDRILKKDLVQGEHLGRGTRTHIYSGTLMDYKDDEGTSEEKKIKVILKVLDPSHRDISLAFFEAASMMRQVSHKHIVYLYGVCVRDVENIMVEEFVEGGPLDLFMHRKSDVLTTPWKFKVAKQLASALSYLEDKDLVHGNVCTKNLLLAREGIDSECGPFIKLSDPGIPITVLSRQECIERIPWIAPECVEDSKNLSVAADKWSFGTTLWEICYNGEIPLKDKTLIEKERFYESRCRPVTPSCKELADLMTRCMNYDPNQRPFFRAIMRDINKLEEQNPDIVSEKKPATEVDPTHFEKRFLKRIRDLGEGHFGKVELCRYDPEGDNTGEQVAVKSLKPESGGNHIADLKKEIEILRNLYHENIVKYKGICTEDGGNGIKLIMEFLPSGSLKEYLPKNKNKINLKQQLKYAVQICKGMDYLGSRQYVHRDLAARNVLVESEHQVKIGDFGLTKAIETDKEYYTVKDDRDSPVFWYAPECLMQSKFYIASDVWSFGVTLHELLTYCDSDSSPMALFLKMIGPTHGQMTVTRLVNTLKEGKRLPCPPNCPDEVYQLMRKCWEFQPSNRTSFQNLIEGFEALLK

The first test deals with TYK2/JAK1 (Homo sapiens, UniProt P29597). Nature of the test: TYK2/JAK1 cell activity by IFNα2B stimulation, SEAP reporter in HEK-blue IFNα/β cells. As to conditions: HEK-blue IFNα/β cell line, human IFNα2B 1 U/mL, 24 hours, SEAP absorbance at 630 nm. As to the method: Experimental Example 3: Analysis of TYK2/JAKI cell activity by IFNα2B stimulation
An inhibition effect of TYK2/JAK1 activity of the test compound was analyzed using HEK-blue IFNα/β cell line (InvivoGen) that secretes SEAP (Secreted embryonic alkaline phosphatase) depending on the degree of cell stimulation. Cell culture and evaluation were performed according to the manufacturer's recommendations, and the method thereof is as follows: Cells cultured in a growth medium (Dulbecco's Modified Eagle Medium, 10% Fetal bovine serum, 1% Penicillin-Streptomycin, 100 ug/mL Normocin, 10 mg/mL Blasticidin, […] Zeocin) were collected and resuspended in a test medium (DMEM, 10% FBS, 1% Penicillin-Streptomycin), and 3.5x10^4 cells (160 uL) were dispensed into each well of a 96-well plate. After culturing for 24 hours in a 37°C CO2 incubator, 20 uL of a test compound or control compound (Deucravacitinib) diluted in the test medium was added, and then incubated at 37°C for 1 hour and 30 minutes. Next, 20 uL of human IFNα2B recombinant protein (PBL assay science) prepared with the test medium was added to each well (final concentration 1 U/mL) and then incubated at 37°C for 24 hours. 20 uL and 180 uL of cell supernatant were mixed with a QUANTI-blue reagent (InvivoGen) and then reacted at 37°C for 20-30 minutes. An absorbance at 630 nm was measured using Synergy neo (BioTek Instruments, Inc.). […] [Table 3] Result of TYK2/JAK1 cell activity by IFNα2B stimulation test
Turning to `CO[C@H](C)COc1cc(-c2cn(C3CC3)c3cnc(NC(C)=O)cc23)nn([C@@H](C)C(F)(F)F)c1=O`, the IC50 was under 0.05 µM.

Consider `COC1CN(c2cc(-c3cn(C4CC4)c4cnc(NC(C)=O)cc34)nn(C(C)C)c2=O)C1`, for which the concentration for half-maximal inhibition (IC50) lay within 0.05 to 0.5 µM.

As for `CC(=O)Nc1cc2c(-c3cc(N4CC(OC(C)C)C4)c(=O)n([C@@H](C)C(F)(F)F)n3)cn(C)c2cn1`, the IC50 was under 0.05 µM.

`CC(=O)Nc1cc2c(-c3cc(OCC(C)(F)F)c(=O)n([C@@H](C)C(F)(F)F)n3)cn(CC(F)F)c2cn1`: the 50% inhibitory concentration (IC50) is under 0.05 µM.

Consider `CC(=O)Nc1cc2c(-c3cc(C4CC4)c(=O)n(C4(C)CCOC4)n3)cn(C3CC(C#N)C3)c2cn1` (stereo not drawn), for which the IC50 is under 0.05 µM.

In the case of `CC(=O)Nc1cc2c(-c3cc(OCC(C)(F)F)c(=O)n([C@@H](C)C(F)(F)F)n3)cn(C3CC4(CCOCC4)C3)c2cn1`, the 50% inhibitory concentration (IC50) was under 0.05 µM.

For `CC(=O)Nc1cc2c(-c3cc(OCC(C)(F)F)c(=O)n([C@@H](C)C(F)(F)F)n3)cn(CCC#N)c2cn1`, the IC50 lay within 0.05 to 0.5 µM.

As for `CC(=O)Nc1cc2c(-c3cc(OCC(C)C)c(=O)n([C@H](C)C(F)(F)F)n3)cn(C)c2cn1`, the concentration for half-maximal inhibition (IC50) is over 0.5 µM.

In the case of `CC(=O)Nc1cc2c(-c3cc(OCC(C)C)c(=O)n(C(C)C)n3)cn(C3CC(C#N)C3)c2cn1` (stereo not drawn), the IC50 was under 0.05 µM.

As for `CC(=O)Nc1cc2c(-c3cc(OCC(F)F)c(=O)n(C(C)C(F)(F)F)n3)cn(C3CC3)c2cn1` (stereo not drawn), the concentration for half-maximal inhibition (IC50) is under 0.05 µM.

Regarding `CC(=O)Nc1cc2c(-c3cc(N4CC5(COC5)C4)c(=O)n(C4(C)CCC4)n3)cn(C)c2cn1`, the IC50 fell in the range of 0.05 to 0.5 µM.

As to `CC(=O)Nc1cc2c(-c3cc(N4CCC5(COC5)C4)c(=O)n([C@@H](C)C(F)(F)F)n3)cn(C3CC3)c2cn1`, the 50% inhibitory concentration (IC50) is under 0.05 µM.

For `CC(=O)Nc1cc2c(-c3cc(OCC(C)(C)F)c(=O)n([C@@H](C)C(F)(F)F)n3)cn(C3CC3)c2cn1`, the half-maximal inhibitory concentration (IC50) was under 0.05 µM.

In the case of `CC(=O)Nc1cc2c(-c3cc(OCC4CCC4)c(=O)n(C(C)C(F)(F)F)n3)cn(C)c2cn1` (stereo not drawn), the IC50 was under 0.05 µM.

A further test has as its target TYK2 pseudokinase domain (Homo sapiens, UniProt P29597). Kind of test: TYK2 JH2 pseudokinase domain binding affinity, fluorescence polarization (BPS Bioscience inhibitor screening kit). As to conditions: read-out: TYK2 JH2 IC50; polarized fluorescence, 25°C, 1 hour. The protocol: Experimental Example 1: Analysis of domain binding affinity to TYK2 pseudokinase
In order analyze the binding affinity of a test compound to the TYK2 pseudokinase domain, a polarized fluorescence-based TYK2 JH2 Pseudokinase Domain Inhibitor Screening Assay Kit (BPS bioscience) was used. The evaluation of the compound was performed according to the manufacturer's protocol, and the method thereof is as follows:
The test compound or control compound (Deucravacitnib) was serially diluted in DMSO, and then diluted 1/10 with distilled water to prepare 10x compound solution. After mixing the compound solution with Probe 1 prepared with a binding reaction buffer (JH2 binding buffer), a reaction was performed at 25°C for 10 minutes. Next, the reaction was initiated by adding a TYK2 pseudokinase domain enzyme prepared with the binding reaction buffer. The reaction was performed in a black 384-well plate at 25 °C for 1 hour. Polarized fluorescence was measured using Synergy neo (BioTek Instruments, Inc.).
As for `CC(=O)Nc1cc2c(cn1)c(C)cn2-c1ccc(=O)n(C2(C)CCOC2)n1` (stereo not drawn), the 50% inhibitory concentration (IC50) came out at 0.06 µM.

As for `CO[C@H](C)COc1cc(-c2cn(C3CC3)c3cnc(NC(C)=O)cc23)nn([C@@H](C)C(F)(F)F)c1=O`, the IC50 turned out to be 0.018 µM.

Turning to `COC1CN(c2cc(-c3cn(C4CC4)c4cnc(NC(C)=O)cc34)nn(C(C)C)c2=O)C1`, the IC50 came out at 0.027 µM.

For `CC(=O)Nc1cc2c(-c3ccc(=O)n(C4(C)CCOC4)c3)cn(C3CC(C#N)C3)c2cn1` (stereo not drawn), the IC50 amounted to 0.111 µM.

With `CC(=O)Nc1cc2c(-c3cc(N4CC(OC(C)C)C4)c(=O)n([C@@H](C)C(F)(F)F)n3)cn(C)c2cn1`, the IC50 worked out at 0.046 µM.

For `CC(=O)Nc1cc2c(-c3cc(OCC(C)(F)F)c(=O)n([C@@H](C)C(F)(F)F)n3)cn(CC(F)F)c2cn1`, the IC50 turned out to be 0.057 µM.

Take `CC(=O)Nc1cc2c(-c3cc(C4CC4)c(=O)n(C4(C)CCOC4)n3)cn(C3CC(C#N)C3)c2cn1` (stereo not drawn): the half-maximal inhibitory concentration (IC50) is 0.018 µM.

In the case of `Cn1cc(-c2ccc(=O)n(C3(C)CCOC3)n2)c2cc(NC(N)=O)ncc21` (stereo not drawn), the IC50 was 0.06 µM.

`CC(=O)Nc1cc2c(-c3cc(OCC(C)(F)F)c(=O)n([C@@H](C)C(F)(F)F)n3)cn(C3CC4(CCOCC4)C3)c2cn1`: the IC50 is 0.029 µM.

On to `CC(=O)Nc1cc2c(-c3cc(OCC(C)(F)F)c(=O)n([C@@H](C)C(F)(F)F)n3)cn(CCC#N)c2cn1`, for which the IC50 was 0.046 µM.

With `CC(=O)Nc1cc2c(-c3cc(OCC(C)C)c(=O)n([C@H](C)C(F)(F)F)n3)cn(C)c2cn1`, the half-maximal inhibitory concentration (IC50) was 0.154 µM.

As for `CC(=O)Nc1cc2c(-c3cc(OCC(C)C)c(=O)n(C(C)C)n3)cn(C3CC(C#N)C3)c2cn1` (stereo not drawn), the IC50 was 0.03 µM.

For `CC(=O)Nc1cc2c(-c3cc(OCC(C)(F)F)c(=O)n([C@@H](C)C(F)(F)F)n3)cn(CC3COC3)c2cn1`, the IC50 came to 0.04 µM.

Consider `CC(=O)Nc1cc2c(-c3cc(OCC(F)F)c(=O)n(C(C)C(F)(F)F)n3)cn(C3CC3)c2cn1` (stereo not drawn), for which the IC50 amounted to 0.061 µM.

Take `CC(=O)Nc1cc2c(-c3cc(N4CC5(COC5)C4)c(=O)n(C4(C)CCC4)n3)cn(C)c2cn1`: the half-inhibitory concentration (IC50) turned out to be 0.03 µM.

Take `CC(=O)Nc1cc2c(-c3cc(N4CCC5(COC5)C4)c(=O)n([C@@H](C)C(F)(F)F)n3)cn(C3CC3)c2cn1`: the IC50 is 0.073 µM.

Turning to `CC(=O)Nc1cc2c(-c3cc(OCC(C)(C)F)c(=O)n([C@@H](C)C(F)(F)F)n3)cn(C3CC3)c2cn1`, the half-inhibitory concentration (IC50) stood at 0.045 µM.

For the molecule `CC(=O)Nc1cc2c(-c3cc(OCC4CCC4)c(=O)n(C(C)C(F)(F)F)n3)cn(C)c2cn1` (stereo not drawn), the half-maximal inhibitory concentration (IC50) was 0.068 µM.

In the case of `CC(=O)Nc1cc2c(-c3cc(C4CC4)c(=O)n(C4CC(=O)C4)n3)cn(C3CC(C#N)C3)c2cn1` (stereo not drawn), the IC50 was determined as 0.061 µM.

On to `CC(=O)Nc1cc2c(-c3ccc(=O)n(C4(C)COC4)n3)cn(C)c2cn1`, for which the half-inhibitory concentration (IC50) amounted to 0.182 µM.

On to `COCCn1nc(-c2cn(C)c3cnc(NC(C)=O)cc23)cc(N2CC(OC)C2)c1=O`, for which the IC50 was found to be 0.149 µM.

As to `CCn1cc(-c2cc(OCC(F)F)c(=O)n([C@@H](C)C(F)(F)F)n2)c2cc(NC(=O)NC)ncc21`, the IC50 is 0.144 µM.

Consider `Cn1cc(-c2ccc(=O)n(C3(C)CCOC3)c2)c2cc(NC(N)=O)ncc21` (stereo not drawn), for which the half-inhibitory concentration (IC50) worked out at 0.091 µM.

With `CC(=O)Nc1cc2c(-c3cc(OCC(C)(F)F)c(=O)n([C@@H](C)C(F)(F)F)n3)cn([C@@H]3CCOC3)c2cn1`, the IC50 was 0.067 µM.

`CC(=O)Nc1cc2c(-c3cc(OCC(C)C)c(=O)n(C(C)C(C)(F)F)n3)cn(C)c2cn1` (stereo not drawn): the half-inhibitory concentration (IC50) is 0.039 µM.
